The source of these data is US20060286112A1.

Experiment [1] addresses biotinylated I domain-GST (human) (UniProt P56199). The experiment is described as follows: competition: I domain-btn binding to immobilized collagen IV, streptavidin-HRP.
Substrate in experiment [2]: I domain-GST, recombinant GST fusion protein containing amino acids 127-340 of the human VLA-1 α1 subunit (human) (UniProt P56199)
As to the kind of experiment: SPR, mAb captured on anti-human IgG, I domain-GST in solution, 1 mM Mg2+. Background: SPR reads the build-up and loss of mass on a sensor chip optically.

Substrate in experiment [3]: I domain-GST, recombinant GST fusion protein containing amino acids 127-340 of the human VLA-1 α1 subunit (human) (UniProt P56199)
The experiment is described as follows: competition: I domain-GST binding to immobilized collagen IV, anti-GST-HRP.

B1: 7.7 (antibody, V domains shown)
VH: QVQLVQSGAEVKKPGASVKVSCKASGYTFTGYFMHWVRQAPGQGLEWMGWINPNSGGTNYAQKFQGRVTMTRDTSISTAYMELSRLRSDDTAVYYCARSVLRYFDWLLWWGQGTLVTVSS
VL: DIVMTQSPESLAVSLGERTTINCKSSQSVLFSSNNENHLAWYQQKPGQPPKLLIYWASTRESGVPDRFSGSGSGTDFTLTISSLQAEDVAVYYCQQYYITPCSFGQGTKLEIK
Consider B1, for which, in experiment [1], the IC50 was determined as 7 nM. In experiment [2], the Kd came to 0.116 nM, the koff came out at 3.67e-05 s⁻¹ and the kon is 316000 M⁻¹ s⁻¹. Also, the IC50 in experiment [3] came to 9.9 nM.

As a reminder, the IC50 is the point on the concentration scale where inhibition reaches its midpoint. A word on the Kd: it is a measure of binding affinity in units of concentration. The koff is a measure of how fast the partners let go of each other. A word on the kon: it is a measure of how fast the partners come together.
